Data taken from patent US20260176636A1, “APTAMER-DIRECT INHIBITOR CONJUGATES AND METHODS OF USING THE SAME” (Duke University, priority 2022, published 2026).

Target: Human alpha thrombin (Homo sapiens, UniProt P00734)
Assay: Fluorogenic activity assay (fluorescent peptidyl substrate cleavage), thrombin
Settings: for pIC50: read-out: IC50 (concentration of inhibitor yielding 50% of the maximum inhibition), thrombin, thrombin 0.5 nM, fluorogenic substrate 50 μM; for relative activity of thrombin in the presence of saturating concentration of inhibitor: α1, α2, α3

HD22-7A-DAB
pIC50: 10.00 | relative activity of thrombin in the presence of saturating concentration of inhibitor: 0

HD22: thrombin exosite II-binding DNA aptamer, SEQ ID NO: 1 [reference compound]
pIC50: 9.02 | relative activity of thrombin in the presence of saturating concentration of inhibitor: 0.70

pIC50: −log10 of the molar value.
